From ChEMBL document CHEMBL6071213, “Bicyclic Inhibitors of Branched-Chain α-Keto Acid Dehydrogenase Kinase (BDK) with In Vivo Activity” (ACS Med Chem Lett, 2024)
The source made the active and inactive calls. No cut-off for these calls is given here.

How the values were obtained:
Assay type in all cases: functional, organism-based
Conditions in all cases: time lower 90.0 min, time upper […]
[1] = target: Branched-chain alpha-ketoacid dehydrogenase kinase (Mus musculus) (UniProt O55028); experiment: In vivo induction of BCKDC activity in mouse heart assessed as increase in BCKDC level at 10 mg/kg,ip administration measured at 90 to 180 mins in presence of [14C]-alpha-ketoisovaleric acid by liquid scintillation counter analysis
[2] = target: Branched-chain alpha-ketoacid dehydrogenase kinase (Mus musculus) (UniProt O55028); experiment: In vivo induction of BCKDC activity in mouse liver assessed as increase in BCKDC level at 10 mg/kg,ip administration measured at 90 to 180 mins in presence of [14C]-alpha-ketoisovaleric acid by liquid scintillation counter analysis
[3] = target: Branched-chain alpha-ketoacid dehydrogenase kinase (Mus musculus) (UniProt O55028); experiment: In vivo induction of BCKDC activity in mouse kidney assessed as increase in BCKDC level at 10 mg/kg,ip administration measured at 90 to 180 mins in presence of [14C]-alpha-ketoisovaleric acid by liquid scintillation counter analysis

Activity [1]: Active
Activity [2]: Active
Activity [3]: Active
Compound: O=C(Nc1nc(-c2ccc(F)cc2F)cs1)[C@H]1[C@H](C(=O)O)[C@H]2C=C[C@@H]1C2
